Test results: ChEMBL document CHEMBL1123281, “Synthesis and rat lens aldose reductase inhibitory activity of some benzopyran-2-ones” (J Med Chem, 1986)

Molecular target: Aldo-keto reductase family 1 member B1 (Rattus norvegicus, UniProt P07943)
Assay: Compound was tested for inhibitory concentration against rat lens aldose reductase (uncompetitive inhibition type)
How it was run: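 Crude supernatant from 50 rat lenses homogenized in distilled water, centrifuged 10 000 rpm, 10 min, 0–5 °C. Read-out was NADPH decrease at 340 nm over 5 min in 0.1 M phosphate pH 6.2, 0.104 mM NADPH, 10 mM DL-glyceraldehyde. IC50 came from least-squares log dose–response fits, using ≥4 concentrations ×4 replicates. Inhibition type was read from double-reciprocal plots with 0.0625–1.0 mM substrate.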

- IC50: 17 nM
Compound: O=C1NC(=O)[C@@]2(CCOc3ccc(F)cc32)N1 [SORBINIL]
